Test results from patent US7968306B2, “Method for measuring activity of a specific fraction of albumin” (Wisconsin Alumni Research Foundation, priority 2002, dated 2011).
Several values for one entry are separate records, joined by “and”; a condition that tells them apart may be missing. Identical values can stand only once.

Assays:
porcine pancreatic PLA2 = target: T1, porcine pancreatic PLA2 (Sus scrofa, UniProt P00592); experiment: Continuous fluorescent assay of PLA2 (Bis-BODIPY FL C11-PC labeled DOPC-PG liposomes); conditions: for effect on PLA2 activity at high protein level: 256 μg protein; for amount displaying similar inhibitory and stimulating effects on PLA2: 3 ml assay; for loss of activity after treating the protein in boiling water: boiling water for 5 min; for effect on PLA2 activity at low protein level: less than 30 μg protein in 3 ml assay; for effects of commercial human albumin on PLA2 activity: Sigma products, FIG. 43
T1 sequence (P00592 23-146): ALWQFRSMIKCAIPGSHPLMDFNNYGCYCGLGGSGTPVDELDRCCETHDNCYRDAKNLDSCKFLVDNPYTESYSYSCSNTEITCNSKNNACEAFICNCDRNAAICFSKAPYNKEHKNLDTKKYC

porcine pancreatic sPLA2 = target: T2, porcine pancreatic sPLA2 (Sus scrofa, UniProt P00592); experiment: SFA activity assay (sPLA2-induced albumin-liposome interaction, BODIPY-FA-labeled liposomes); type: biochemical; conditions: BODIPY-FA DOPC-PG liposomes, single cuvette
T2 construct: purchased Sigma P6534; host or cells: porcine pancreas
T2 sequence (P00592 23-146): T1 sequence (P00592 23-146)

[1] = target: T3, recombinant human sPLA2-IIA (Homo sapiens, UniProt P14555); experiment: sPLA2-IIA microplate fluorescent assay (BODIPY-PC labeled liposomes); type: biochemical; conditions: 0.005 or 0.05 mg albumin in 0.3 ml microplate assay, FIG. 53
T3 construct: gift: Dr. Wonhwa Cho, Department of Chemistry, University of Illinois at Chicago
T3 sequence (P14555 21-144): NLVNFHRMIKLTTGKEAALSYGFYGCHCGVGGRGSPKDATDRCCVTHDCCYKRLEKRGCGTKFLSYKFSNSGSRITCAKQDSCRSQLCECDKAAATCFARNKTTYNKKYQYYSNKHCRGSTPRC

[2] = 0.08 mg albumin in 3 ml assay mixture

## Albumin: human serum albumin used in the lysoPC mixing experiment
Porcine pancreatic PLA2; with lysoPC (9 nmol), 5 ng PLA2, 37° C., 2 min, truncated α1-AT 6 μg, intact α1-AT 20 μg, albumin 20 μg
  TFI: 46.01 and 35.91
Porcine pancreatic PLA2; with lysoPC (9 nmol), control LysoPC + PLA2, truncated α1-AT 6 μg, intact α1-AT 20 μg, albumin 20 μg
  % of control: 113.1% and 151.2%
Porcine pancreatic PLA2; without lysoPC, 5 ng PLA2, 37° C., 2 min, truncated α1-AT 6 μg, intact α1-AT 20 μg, albumin 20 μg
  TFI: 66.20 and 48.19
Porcine pancreatic PLA2; without lysoPC, control PLA2 (5 ng), truncated α1-AT 6 μg, intact α1-AT 20 μg, albumin 20 μg
  % of control: 139.6% and 198.9%

## Protein-I: protein purified from human serum by G100, MonoQ and Vydac C4 columns; identified as albumin (SFA)
Porcine pancreatic PLA2
  effect on PLA2 activity at high protein level: produced negative ΔFI below the baseline
  amount displaying similar inhibitory and stimulating effects on PLA2: 128 µg
  loss of activity after treating the protein in boiling water: lost all of its ΔFI increasing and decreasing effects
  effect on PLA2 activity at low protein level: increased ΔFI
Porcine pancreatic PLA2; listed as protein-I
  effect on PLA2 activity at high protein level: totally inhibited PLA2 activity
  loss of activity after treating the protein in boiling water: lost all of its stimulating and inhibiting activities
  effect on PLA2 activity at low protein level: stimulated PLA2
Porcine pancreatic PLA2; 60 to 100 μg protein
  effect on PLA2 activity at intermediate protein level: PLA2 inhibitory activity in the beginning of the reaction and then showed PLA2 stimulating activity

## fatty acid-free albumin: human serum albumin, fatty acid free (A3782), Sigma Chemical Co., prepared from globulin-free product
Porcine pancreatic sPLA2
  FI change (SFA activity) in presence of sPLA2: increased ΔFI much higher than that generated by the same amount of globulin-free albumin
Porcine pancreatic sPLA2; listed as FAF-Alb
  FI change (SFA activity) in presence of sPLA2: caused FI increase
[1]
  effects on recombinant human sPLA2-IIA activity: ΔFI-increasing and ΔFI-decreasing effects
Porcine pancreatic PLA2; [2]
  effect on ΔFI in the sPLA2 assay: increased ΔFI
Porcine pancreatic PLA2; 0.32 mg albumin in 3 ml assay mixture
  effect on ΔFI in the sPLA2 assay: reduced ΔFI in the first 60 sec to the level below the baseline, and then gradually increased ΔFI to above the baseline level
Porcine pancreatic PLA2; 0.64 mg albumin in 3 ml assay mixture, 2-min reaction
  effect on ΔFI in the sPLA2 assay: reduced far below the baseline
Porcine pancreatic PLA2; 0.64 mg of each albumin in the PLA2 reaction mixture, 2 assays
  TFI: -91.87±2.03
Porcine pancreatic PLA2
  amount displaying similar inhibitory and stimulating effects on PLA2: 320 µg
  effects of commercial human albumin on PLA2 activity: exhibited the stimulating and inhibitory effects on PLA2

## globulin-free albumin: human serum albumin, globulin free (A8763), Sigma Chemical Co.
Porcine pancreatic sPLA2
  FI change (SFA activity) in presence of sPLA2: much lower than that of FA-free albumin
Porcine pancreatic PLA2; [2]
  effect on ΔFI in the sPLA2 assay: increased ΔFI
Porcine pancreatic PLA2; 0.32 mg to 0.64 mg albumin
  effect on ΔFI in the PLA2 reaction: much less inhibitory effect
Porcine pancreatic PLA2
  effects of commercial human albumin on PLA2 activity: much less PLA2 inhibitory activity
